Molecules are shown by their SMILES.

By UniProt entry, the sequences of proteins in these tests, tags left out. Residues count along the entry.
UniProt P06213, 28-758 limits assumed: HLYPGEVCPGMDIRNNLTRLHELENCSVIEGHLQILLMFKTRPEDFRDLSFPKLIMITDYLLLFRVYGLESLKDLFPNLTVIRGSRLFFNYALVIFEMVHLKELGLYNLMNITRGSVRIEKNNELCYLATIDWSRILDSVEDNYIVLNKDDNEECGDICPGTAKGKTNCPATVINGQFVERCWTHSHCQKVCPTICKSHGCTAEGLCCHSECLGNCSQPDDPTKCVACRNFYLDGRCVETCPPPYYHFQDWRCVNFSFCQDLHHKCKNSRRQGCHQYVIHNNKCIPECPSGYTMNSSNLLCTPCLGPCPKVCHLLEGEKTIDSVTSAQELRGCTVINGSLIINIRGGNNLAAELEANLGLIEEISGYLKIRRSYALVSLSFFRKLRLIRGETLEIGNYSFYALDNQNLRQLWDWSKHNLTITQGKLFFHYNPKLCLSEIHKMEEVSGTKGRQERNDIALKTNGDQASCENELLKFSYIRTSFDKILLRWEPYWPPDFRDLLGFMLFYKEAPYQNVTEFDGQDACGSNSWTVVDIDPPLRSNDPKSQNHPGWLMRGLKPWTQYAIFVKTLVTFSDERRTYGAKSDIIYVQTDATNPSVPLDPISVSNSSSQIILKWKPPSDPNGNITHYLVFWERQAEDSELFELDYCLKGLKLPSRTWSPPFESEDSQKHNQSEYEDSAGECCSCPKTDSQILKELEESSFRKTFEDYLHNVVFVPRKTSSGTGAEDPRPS
UniProt P06213, 763-1382 limits assumed: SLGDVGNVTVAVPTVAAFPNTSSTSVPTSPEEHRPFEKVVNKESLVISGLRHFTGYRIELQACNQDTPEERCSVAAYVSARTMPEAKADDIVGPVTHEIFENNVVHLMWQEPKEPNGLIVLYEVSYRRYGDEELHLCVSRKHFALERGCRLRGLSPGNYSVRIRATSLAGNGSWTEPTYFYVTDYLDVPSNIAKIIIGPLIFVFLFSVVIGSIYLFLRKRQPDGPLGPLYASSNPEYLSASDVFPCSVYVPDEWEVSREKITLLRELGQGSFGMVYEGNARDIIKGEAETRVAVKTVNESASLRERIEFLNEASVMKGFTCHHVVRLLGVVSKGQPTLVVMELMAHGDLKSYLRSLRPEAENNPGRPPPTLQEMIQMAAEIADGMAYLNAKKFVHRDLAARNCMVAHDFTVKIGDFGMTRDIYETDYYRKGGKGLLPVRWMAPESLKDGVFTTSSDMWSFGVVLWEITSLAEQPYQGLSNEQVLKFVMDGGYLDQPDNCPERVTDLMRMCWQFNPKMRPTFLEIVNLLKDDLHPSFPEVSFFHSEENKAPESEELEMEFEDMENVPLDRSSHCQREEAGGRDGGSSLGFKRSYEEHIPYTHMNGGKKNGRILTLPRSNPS

Experiment [1] concerns the target T1, Human macrophage mannose receptor 1 (MRC1) (Homo sapiens, UniProt P22897).
T1 sequence (P22897 19-1456): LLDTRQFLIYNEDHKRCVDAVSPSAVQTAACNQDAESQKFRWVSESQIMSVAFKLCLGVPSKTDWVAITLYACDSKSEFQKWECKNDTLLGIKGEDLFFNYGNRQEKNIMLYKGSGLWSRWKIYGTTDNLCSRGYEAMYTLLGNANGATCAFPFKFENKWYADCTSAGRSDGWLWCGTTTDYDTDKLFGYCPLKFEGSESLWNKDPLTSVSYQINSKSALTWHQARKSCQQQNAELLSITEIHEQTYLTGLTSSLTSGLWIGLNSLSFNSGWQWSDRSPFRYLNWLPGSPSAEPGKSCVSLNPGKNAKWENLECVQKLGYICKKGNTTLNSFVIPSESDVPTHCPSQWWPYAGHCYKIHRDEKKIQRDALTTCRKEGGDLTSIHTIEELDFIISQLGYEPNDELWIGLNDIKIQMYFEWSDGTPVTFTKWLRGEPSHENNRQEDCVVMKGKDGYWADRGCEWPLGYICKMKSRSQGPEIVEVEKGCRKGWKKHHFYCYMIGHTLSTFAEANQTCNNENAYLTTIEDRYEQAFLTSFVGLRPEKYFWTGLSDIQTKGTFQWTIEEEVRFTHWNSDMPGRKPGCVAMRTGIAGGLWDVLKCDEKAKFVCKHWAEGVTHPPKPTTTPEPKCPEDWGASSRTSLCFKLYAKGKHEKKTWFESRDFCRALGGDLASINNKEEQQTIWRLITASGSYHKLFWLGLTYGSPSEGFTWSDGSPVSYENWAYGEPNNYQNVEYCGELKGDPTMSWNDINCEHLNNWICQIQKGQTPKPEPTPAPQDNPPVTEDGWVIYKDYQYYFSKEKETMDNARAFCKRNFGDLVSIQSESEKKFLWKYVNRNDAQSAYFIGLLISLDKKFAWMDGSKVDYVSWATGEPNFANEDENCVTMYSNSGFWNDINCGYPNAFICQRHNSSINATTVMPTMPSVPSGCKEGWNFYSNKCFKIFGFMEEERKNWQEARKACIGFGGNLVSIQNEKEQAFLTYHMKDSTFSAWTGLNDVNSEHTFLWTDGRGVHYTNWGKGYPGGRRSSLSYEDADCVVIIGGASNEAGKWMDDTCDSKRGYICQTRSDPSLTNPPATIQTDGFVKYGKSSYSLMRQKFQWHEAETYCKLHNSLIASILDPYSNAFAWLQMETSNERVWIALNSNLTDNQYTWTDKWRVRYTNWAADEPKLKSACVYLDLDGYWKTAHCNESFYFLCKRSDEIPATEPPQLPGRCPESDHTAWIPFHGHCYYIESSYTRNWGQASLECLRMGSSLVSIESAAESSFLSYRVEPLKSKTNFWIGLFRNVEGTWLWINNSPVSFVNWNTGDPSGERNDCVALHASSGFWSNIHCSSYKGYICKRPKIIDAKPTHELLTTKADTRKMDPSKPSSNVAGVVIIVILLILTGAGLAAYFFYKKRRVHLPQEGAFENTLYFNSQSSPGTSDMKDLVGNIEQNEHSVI
Kind of experiment: Human macrophage mannose receptor 1 competition binding assay (Method E 96-well, Method F 384-well). The note with it: read-out: MRC1 Binding IP‡; Method H as printed in the table. As to the method: The competition binding assay for Human macrophage mannose receptor 1 (MRC1) utilized a ligand, mannosylated-BSA labeled with the DELFIA Eu-N1-ITC reagent, as reported in the literature. Assay was performed either in a 96-well plate with 100 μL well volume (Method E) or in a 384-well plate with 25 μL well volume (Method F). […] The antibody was incubated in the plate for 1 h at rt with shaking. The plate was washed with wash buffer 3 to 5 times followed by addition of MRC1 (2 ng/μl final concentration) in PBS containing 1% stabilizer BSA. The plate was incubated at rt with gentle shaking for 1 h. The plate was washed three times with wash buffer. […]
(§1) The in vitro biological activities towards insulin receptor (IR) were measured by either ligand competition assays or functional phosphorylation assays, as described above, labeled as following: Method A: IR phosphorylation assay based on 96-well; Method B: IR phosphorylation assay based on 384-well with automated liquid dispense; Method C: cell-based IR binding assay; Method D: SPA IR binding assay method E; Method E: MRC1 assay was performed in a 96-well plate; Method F: MRC1 assay was performed in a 384-well plate.

In experiment [2] the target is T2, human IR(B) (Homo sapiens, UniProt P06213).
T2 construct: expressed in transfected cells; host or cells: CHO cells
Kind of experiment: Insulin receptor phosphorylation assay (MSD pIR; Method A 96-well, Method B 384-well). The experiment is classed as cell-based. The note with it: read-out: IR Activation IP†; Method C as printed in the table. As to the method:
CHO cells stably expressing human IR(B) were in grown in F12 cell media containing 10% FBS and antibiotics (G418, Penicillin/Strepavidin) for at least 8 h, and then serum starved by switching to F12 media containing 0.5% BSA (insulin-free) in place of FBS for overnight growth. Cells were harvested and frozen in aliquots for use in the MSD pIR assay. Briefly, the frozen cells were plated in either 96-well (40,000 cells/well, Methods A) or 384-well (10,000 cells/well, Method B) clear tissue culture plates and allowed to recover. IOC molecules at the appropriate concentrations were added and the cells incubated for 8 min at 37° C. The media was aspirated and chilled MSD cell lysis buffer was added as per MSD kit instructions. The cells were lysed on ice for 40 min, and the lysate then was mixed for 10 min at rt. […]
as §1

For the compound `CC[C@H](C)[C@H](NC(=O)CNC(=O)CCCCC(=O)NCCO[C@H]1O[C@H](CO[C@H]2O[C@H](CO)[C@@H](O)[C@H](O)[C@@H]2O)[C@@H](O)[C@H](O[C@H]2O[C@H](CO)[C@@H](O)[C@H](O)[C@@H]2O)[C@@H]1O)C(=O)N[C@H](C(=O)N[C@@H](CCC(=O)O)C(=O)N[C@@H](CCC(N)=O)C(=O)N[C@H]1CSSC[C@@H]2NC(=O)[C@H]([C@@H](C)CC)NC(=O)[C@H](CO)NC(=O)[C@H]([C@@H](C)O)NC(=O)[C@H](CSSC[C@H](NC(=O)[C@H](CC(C)C)NC(=O)[C@H](Cc3c[nH]cn3)NC(=O)[C@H](CCC(N)=O)NC(=O)[C@H](CC(N)=O)NC(=O)[C@@H](NC(=O)[C@H](Cc3ccccc3)NC(=O)CCCCC(=O)NCCO[C@H]3O[C@H](CO[C@H]4O[C@H](CO)[C@@H](O)[C@H](O)[C@@H]4O)[C@@H](O)[C@H](O[C@H]4O[C@H](CO)[C@@H](O)[C@H](O)[C@@H]4O)[C@@H]3O)C(C)C)C(=O)NCC(=O)N[C@@H](CO)C(=O)N[C@@H](Cc3c[nH]cn3)C(=O)N[C@@H](CC(C)C)C(=O)N[C@@H](C(C)C)C(=O)N[C@@H](CCC(=O)O)C(=O)N[C@@H](C)C(=O)N[C@@H](CC(C)C)C(=O)N[C@@H](Cc3ccc(O)cc3)C(=O)N[C@@H](CC(C)C)C(=O)N[C@@H](C(C)C)C(=O)N[C@H](C(=O)NCC(=O)N[C@@H](CCC(=O)O)C(=O)N[C@@H](CCCNC(=N)N)C(=O)NCC(=O)N[C@@H](Cc3ccccc3)C(=O)N[C@@H](Cc3ccccc3)C(=O)N[C@@H](Cc3ccc(O)cc3)C(=O)N[C@H](C(=O)N3CCC[C@H]3C(=O)N[C@@H](CCCNC(=N)N)C(=O)O)[C@@H](C)O)CSSC[C@@H](C(=O)N[C@@H](CC(N)=O)C(=O)O)NC(=O)[C@H](Cc3ccc(O)cc3)NC(=O)[C@H](CCCCN)NC(=O)[C@H](CCC(=O)O)NC(=O)[C@H](CC(C)C)NC(=O)[C@H](CCC(N)=O)NC(=O)[C@H](Cc3ccc(O)cc3)NC(=O)[C@H](CC(C)C)NC(=O)[C@H](CO)NC2=O)NC1=O)C(C)C` [IOC-116], the IC50 in experiment [1] came out at 0.0202 µM. The EC50 in experiment [2] came out at 0.00179 µM.

For the compound `CC[C@H](C)[C@H](NC(=O)CN)C(=O)N[C@H](C(=O)N[C@@H](CCC(=O)O)C(=O)N[C@@H](CCC(N)=O)C(=O)N[C@H]1CSSC[C@@H]2NC(=O)[C@H]([C@@H](C)CC)NC(=O)[C@H](CCCCNC(=O)CCCCC(=O)NCCO[C@H]3O[C@H](CO[C@H]4O[C@H](CO)[C@@H](O)[C@H](O)[C@@H]4O)[C@@H](O)[C@H](O[C@H]4O[C@H](CO)[C@@H](O)[C@H](O)[C@@H]4O)[C@@H]3O)NC(=O)[C@H]([C@@H](C)O)NC(=O)[C@H](CSSC[C@H](NC(=O)[C@H](CC(C)C)NC(=O)[C@H](Cc3c[nH]cn3)NC(=O)[C@H](CCC(N)=O)NC(=O)[C@H](CC(N)=O)NC(=O)[C@@H](NC(=O)[C@@H](N)Cc3ccccc3)C(C)C)C(=O)NCC(=O)N[C@@H](CO)C(=O)N[C@@H](Cc3c[nH]cn3)C(=O)N[C@@H](CC(C)C)C(=O)N[C@@H](C(C)C)C(=O)N[C@@H](CCC(=O)O)C(=O)N[C@@H](C)C(=O)N[C@@H](CC(C)C)C(=O)N[C@@H](Cc3ccc(O)cc3)C(=O)N[C@@H](CC(C)C)C(=O)N[C@@H](C(C)C)C(=O)N[C@H](C(=O)NCC(=O)N[C@@H](CCC(=O)O)C(=O)N[C@@H](CCCNC(=N)N)C(=O)NCC(=O)N[C@@H](Cc3ccccc3)C(=O)N[C@@H](Cc3ccccc3)C(=O)N[C@@H](Cc3ccc(O)cc3)C(=O)N[C@H](C(=O)N3CCC[C@H]3C(=O)N[C@@H](CCCCNC(=O)CCCCC(=O)NCCO[C@H]3O[C@H](CO[C@H]4O[C@H](CO)[C@@H](O)[C@H](O)[C@@H]4O)[C@@H](O)[C@H](O[C@H]4O[C@H](CO)[C@@H](O)[C@H](O)[C@@H]4O)[C@@H]3O)C(=O)O)[C@@H](C)O)CSSC[C@@H](C(=O)N[C@@H](CC(N)=O)C(=O)O)NC(=O)[C@H](Cc3ccc(O)cc3)NC(=O)[C@H](CC(N)=O)NC(=O)[C@H](CCC(=O)O)NC(=O)[C@H](CC(C)C)NC(=O)[C@H](CCC(N)=O)NC(=O)[C@H](Cc3ccc(O)cc3)NC(=O)[C@H](CC(C)C)NC(=O)[C@H](CO)NC2=O)NC1=O)C(C)C` [IOC-118], in experiment [1], the IC50 came out at 0.0241 µM. The EC50 in experiment [2] was determined as 0.000866 µM.
